Consider 59 compounds from PubChem BioAssay AID602340 (Broad Institute, 2012).

Structures are written as SMILES. Only a part is listed here, and it is no random draw. Calls of active or inactive are those of the source.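 Rule for the calls: active = mean ATP rescue above about 67%, or every replicate alone reaching that limit (limit read from the data, passing the limit was not always enough); inconclusive = no clear call, values can overlap the other calls; inactive = mean under the limit and some replicate under it.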

This test is described as follows: suppressors of statin myotoxicity in C2C12 myotubes, primary screen, cell-based, single point, plate reader (AID 602340).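 Note: myotubes were challenged with 10 µM simvastatin during compound exposure.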 Particulars: C2C12 myotubes + simvastatin, ATP luminescence, 48 h; at 7.49 µM; active compounds read high; scaled: DMSO 0, geranylgeraniol control 100.
Regarding `COc1cc(OC)c(C(=O)NCC2(N(C)C)CCCCC2)cc1OC`, the rescue of ATP level was inactive: -0.303%.
In the case of `CCC(c1nnnn1C(C)(C)C)N1CCC(n2c(=O)[nH]c3ccccc32)CC1` (centres undefined), the rescue of ATP level is inactive: 5.71%.
`O=C(NCC1(N2CCOCC2)CCCCC1)c1cc(F)c(F)cc1Cl`: the rescue of ATP level is inactive: -10.3%.
Take `CCCCn1nnnc1C(c1ccnc2ccccc12)N1CCC(n2c(=O)[nH]c3ccccc32)CC1` (centres undefined): the rescue of ATP level is inactive: -1.19%.
For the compound `CCCCn1nnnc1C(c1ccccc1OC(F)(F)F)N1CCC(n2c(=O)[nH]c3ccccc32)CC1` (centres undefined), the rescue of ATP level was inactive: 6.56%.
Consider `COc1ccc(CN(CCCl)CCCl)cc1Cl`, for which the rescue of ATP level was inactive: 13.5%.
Take `CN(C)c1cccc(C(=O)NCC2(N3CCCCC3)CCCCC2)c1`: the rescue of ATP level is inactive: 2.8%.
`COc1ccc(C(c2nnnn2C2CCCC2)N2CCC(n3c(=O)[nH]c4ccccc43)CC2)cc1` (centres undefined): the rescue of ATP level was inactive: 0.718%.
On to `Cc1ccc(C(=O)NCC2(N(C)C)CCCCC2)o1`, for which the rescue of ATP level is inactive: -4.73%.
Consider `CCCOc1ccc(C(=O)NCC2(N(C)C)CCCCC2)cc1OC`, for which the rescue of ATP level is inactive: 1.23%.
For the compound `O=C(NCC1(N2CCCCC2)CCCCC1)c1cncc(Br)c1`, the rescue of ATP level was inactive: 14.2%.
For the compound `CCN1CCC(Nc2ccc(Cl)cc2)CC1`, the rescue of ATP level was inactive: -0.167%.
For `N#CC1(Nc2ccccc2)CCN(CCc2ccccc2)CC1` the value was inactive: 2.86%; for `O=c1[nH]c2ccccc2n1C1CCN(C(c2ccccc2OC(F)(F)F)c2nnnn2C2CCCC2)CC1` (centres undefined), inactive: 6.79%.
As for `CSc1ccc(C(=O)NCC2(N3CCOCC3)CCCCC2)cc1`, the rescue of ATP level is inactive: -2.06%.
On to `CC(C)(C)n1nnnc1C(c1ccccc1OC(F)(F)F)N1CCC(n2c(=O)[nH]c3ccccc32)CC1` (centres undefined), for which the rescue of ATP level is inactive: 8.11%.
As for `O=C(NCC1(N2CCCCC2)CCCCC1)c1ccc(OC(F)F)cc1`, the rescue of ATP level was inactive: 4.14%.
Take `O=C(NCC1(N2CCOCC2)CCCCC1)c1cc(=O)[nH]c2ccccc12`: the rescue of ATP level was inactive: -15.7%.
In the case of `COc1cc(C(=O)NCC2(N3CCCCC3)CCCCC2)ccc1OC(F)F`, the rescue of ATP level was inactive: -9.62%.
On to `CCCCn1nnnc1C(c1cccc2ccccc12)N1CCC(n2c(=O)[nH]c3ccccc32)CC1` (centres undefined), for which the rescue of ATP level was inactive: -12.2%.
On to `CC(C)c1ccc(C(=O)NCC2(N3CCOCC3)CCCCC2)cc1`, for which the rescue of ATP level was inactive: -16.1%.
For the compound `O=C(NCC1(N2CCCCC2)CCCCC1)c1cccc(C(F)(F)F)c1`, the rescue of ATP level was inactive: 11%.
For the compound `O=C(NCC1(N2CCCCC2)CCCCC1)c1ccc(F)cc1`, the rescue of ATP level was inactive: 23.7%.
`CCCCOc1ccc(C(=O)NCC2(N3CCOCC3)CCCCC2)cc1`: the rescue of ATP level was inactive: -3.22%.
For `O=P1(N(CCCl)CCCl)SCCCS1` the value was inactive: -3.1%; for `CCCCn1nnnc1C(c1cc2ccccc2o1)N1CCC(n2c(=O)[nH]c3ccccc32)CC1` (centres undefined), inactive: -28.5%.
As for `CCOC(=O)N1CCC(Nc2ccc(F)cc2)CC1`, the rescue of ATP level is inactive: -4.27%.
Turning to `COc1ccc(NC2CCN(CCc3ccccc3)CC2)c(OC)c1`, the rescue of ATP level was inactive: -12.2%.
Consider `CC(C)(C)n1nnnc1C(c1ccccc1)N1CCC(n2c(=O)[nH]c3ccccc32)CC1` (centres undefined), for which the rescue of ATP level is inactive: 1.35%.
In the case of `O=C1CCN(Cc2ccccc2)CC1`, the rescue of ATP level was inactive: -6.94%.
On to `COc1cc(C(=O)NCC2(N(C)C)CCCCC2)ccc1OC(F)F`, for which the rescue of ATP level was inactive: -5.19%.
In the case of `CCOC(=O)N1CCC(Nc2cccc(C)c2)CC1`, the rescue of ATP level was inactive: 1.08%.
For `O=c1[nH]c2ccccc2n1C1CCN(C(c2cccc3ccccc23)c2nnnn2C2CCCC2)CC1` (centres undefined) the value was inactive: -14.5%.
For the compound `O=c1[nH]c2ccccc2n1C1CCN(C(c2ccccc2)c2nnnn2C2CCCCC2)CC1` (centres undefined), the rescue of ATP level was inactive: 15.7%.
Regarding `CSc1ccccc1C(=O)NCC1(N2CCCCC2)CCCCC1`, the rescue of ATP level is inactive: -10.8%.
For the compound `Cc1cccc(NC2(C#N)CCN(Cc3ccccc3)CC2)c1`, the rescue of ATP level was inactive: 5.43%.
Consider `COc1ccc(C(=O)NCC2(N3CCCCC3)CCCCC2)cc1`, for which the rescue of ATP level was inactive: 2.8%.
In the case of `CCC(c1nnnn1C1CCCC1)N1CCC(n2c(=O)[nH]c3ccccc32)CC1` (centres undefined), the rescue of ATP level is inactive: 1.56%.
Turning to `CC(C)(C)OC(=O)N1CCC(N(C(=O)c2ccccc2)c2ccc(F)cc2)CC1`, the rescue of ATP level was inactive: -1.95%.
On to `O=C(NCC1(N2CCCCC2)CCCCC1)c1ccc(=O)[nH]c1`, for which the rescue of ATP level is inactive: 3.85%.
For `CCCCn1nnnc1C(c1cccs1)N1CCC(n2c(=O)[nH]c3ccccc32)CC1` (centres undefined), the rescue of ATP level is inactive: 14.5%.
Turning to `O=C(NCC1(N2CCCCC2)CCCCC1)c1cccs1`, the rescue of ATP level is inactive: -2.75%.
With `CCCCn1nnnc1C(CC)N1CCC(n2c(=O)[nH]c3ccccc32)CC1` (centres undefined), the rescue of ATP level was inactive: -2.72%.
`O=c1[nH]c2ccccc2n1C1CCN(C(c2cc3ccccc3o2)c2nnnn2C2CCCCC2)CC1` (centres undefined): the rescue of ATP level was inactive: -16.1%.
For `O=C(OC1CN2CCC1CC2)C1c2ccccc2Oc2ccccc21` (centres undefined), the rescue of ATP level is inactive: -10.4%.
For `O=C(NCC1(N2CCCCC2)CCCCC1)c1ccc(Cl)s1` the value was inactive: 0.554%; for `COc1ccc(Cl)cc1C(=O)NCC1(N2CCOCC2)CCCCC1`, inactive: -6.79%; for `CCOC(=O)N1CCC(Nc2ccc(OC)cc2)CC1`, inactive: 13.6%.
With `CCCCn1nnnc1C(c1ccc(OC)cc1)N1CCC(n2c(=O)[nH]c3ccccc32)CC1` (centres undefined), the rescue of ATP level is inactive: 9.59%.
For `O=c1[nH]c2ccccc2n1C1CCN(C(c2ccccc2OC(F)(F)F)c2nnnn2C2CCCCC2)CC1` (centres undefined) the value was inactive: -0.825%; for `O=C(NCC1(N2CCCCC2)CCCCC1)c1ccc(Cl)nc1`, inactive: -7.79%; for `Cc1cc(C)cc(N(C(=O)c2ccccc2)C2CCN(C(=O)OC(C)(C)C)CC2)c1`, inactive: 36.9%.
In the case of `O=C(O)C1(Nc2ccccc2)CCN(Cc2ccccc2)CC1` it was inactive: -6.36%; in that of `CCCOc1ccc(C(=O)NCC2(N(C)C)CCCCC2)cc1`, inactive: -3.62%.
As for `O=c1[nH]c2ccccc2n1C1CCN(C(c2cc3ccccc3o2)c2nnnn2C2CCCC2)CC1` (centres undefined), the rescue of ATP level was inactive: -43.9%.
For `CCOc1ncccc1C(=O)NCC1(N2CCOCC2)CCCCC1` the value was inactive: 21.2%; for `CN1CCC(Nc2ccc(F)c(Cl)c2)CC1`, inactive: -3.84%.
For the compound `CN1CCC(Nc2ccc(Cl)cc2)CC1`, the rescue of ATP level is inactive: -4.84%.
In the case of `COc1cccc(C(=O)N(c2cc(C)cc(C)c2)C2CCN(C(=O)OC(C)(C)C)CC2)c1` it was inactive: 25.7%.
